Here are results for 1 compound from ChEMBL document CHEMBL3351561, “Discovery of 9-(1-anilinoethyl)-2-morpholino-4-oxo-pyrido[1,2-a]pyrimidine-7-carboxamides as PI3Kβ/δ inhibitors for the treatment of PTEN-deficient tumours” (Bioorg Med Chem Lett, 2014).

Amino acid sequences for entries named in this document (tags omitted). A change or cut given only in a name is not applied to a line headed by its entry.
UniProt P42338: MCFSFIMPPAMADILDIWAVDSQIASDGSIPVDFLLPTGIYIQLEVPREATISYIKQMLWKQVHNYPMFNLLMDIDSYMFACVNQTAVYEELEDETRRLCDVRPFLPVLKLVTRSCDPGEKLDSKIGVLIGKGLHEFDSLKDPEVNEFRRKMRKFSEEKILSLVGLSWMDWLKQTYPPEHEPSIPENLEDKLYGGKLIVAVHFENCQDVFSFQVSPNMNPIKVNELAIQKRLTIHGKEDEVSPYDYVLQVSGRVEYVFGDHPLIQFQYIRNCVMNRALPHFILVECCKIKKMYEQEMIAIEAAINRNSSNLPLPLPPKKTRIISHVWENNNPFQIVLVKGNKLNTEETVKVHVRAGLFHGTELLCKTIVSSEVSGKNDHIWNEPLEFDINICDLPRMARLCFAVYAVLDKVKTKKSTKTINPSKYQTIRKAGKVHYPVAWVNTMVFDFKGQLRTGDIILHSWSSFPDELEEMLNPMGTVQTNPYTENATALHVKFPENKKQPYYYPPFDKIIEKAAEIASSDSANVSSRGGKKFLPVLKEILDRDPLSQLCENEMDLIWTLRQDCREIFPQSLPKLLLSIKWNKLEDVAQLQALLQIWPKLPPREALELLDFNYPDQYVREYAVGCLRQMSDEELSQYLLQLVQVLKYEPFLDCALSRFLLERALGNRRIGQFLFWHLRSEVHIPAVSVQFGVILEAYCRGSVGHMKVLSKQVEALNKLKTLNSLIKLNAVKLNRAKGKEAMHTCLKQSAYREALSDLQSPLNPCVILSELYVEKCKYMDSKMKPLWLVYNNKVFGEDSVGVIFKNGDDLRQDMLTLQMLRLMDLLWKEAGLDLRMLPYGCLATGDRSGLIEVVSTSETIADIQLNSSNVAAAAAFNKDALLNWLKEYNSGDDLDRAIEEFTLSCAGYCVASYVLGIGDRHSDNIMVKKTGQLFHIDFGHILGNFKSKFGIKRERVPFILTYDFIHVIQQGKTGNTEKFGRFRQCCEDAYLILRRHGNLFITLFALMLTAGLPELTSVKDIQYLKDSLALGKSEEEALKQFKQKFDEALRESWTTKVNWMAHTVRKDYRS

The assay has as its target Phosphatidylinositol 4,5-bisphosphate 3-kinase catalytic subunit beta isoform (Homo sapiens, UniProt P42338).

As usually defined, the IC50 is the midpoint of a concentration-inhibition curve. Lower therefore signals inhibition by little substance.

Turning to `Cc1cc(C(C)Nc2ccccc2)c2nc(N3CCOCC3)cc(=O)n2c1` (racemic), it took 22 nM to reach half-maximal inhibition (IC50).
